PubChem BioAssay AID860 (Vanderbilt High Throughput Screening Facility, 2007)

Biological target: Muscarinic acetylcholine receptor M4 (Rattus norvegicus) (UniProt P08485)
Experiment: rat M4 receptor inhibition concentration-response – cell-based, antagonist mode, counter-screen for M1 allosteric modulator project, dose response (AID 860)
Settings: rat M4-expressing cells, calcium fluorescence, antagonist mode at EC80 agonist

Row | Structure (SMILES) | IC50 [µM]
1 | O=C(OC1CN2CCC1CC2)c1cccc(Cl)c1 (centres undefined) | 11.3
2 | O=C(OC1CN2CCC1CC2)C12CC3CC(CC(C3)C1)C2 (centres undefined) | 0.359
3 | CCN(CC)CC(O)COC(=O)C(O)(c1ccccc1)C1CCCCC1 (centres undefined) | 0.0535
4 | O=C(COc1ccccc1)OC1CN2CCC1CC2 (centres undefined) | 11.8
